Test [1] deals with cyclophilin A (CYPA) (Homo sapiens, UniProt P62937). The test is described as follows: CYPA-compound binary complex formation by SPR. The note with it: read-out: CYPA Binding Affinity. The essentials:
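Steady-state fit of SPR responses gave binding affinity. Analyte series: 50 μM downward, 2-fold, 10 points, running buffer HBS-P+ (0.05% Tween20, pH7.4, 2% DMSO), 60 s on/60 s off. Surface: biotinylated CypA-Avi captured at 4 μg/ml against a reference cell, regenerated with NaOH/guanidine.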
(In general: SPR reads the build-up and loss of mass on a sensor chip optically.)

In test [2] the test system is pERK in H358 cells. The test is described as follows: pERK inhibition in H358 cells. Particulars: read-out: Cellular pERK inhibition, 4 hours treatment. The method in brief: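 Human lung cancer H358 cells in RPMI/10% FBS were exposed to compound or DMSO for 4 h. Fixed and permeabilized cells were stained overnight at 4 C with anti-phospho-ERK1/2 (Thr202/Tyr204). Near-infrared imaging read the pERK signal at 800 nm, with DRAQ5 at 700 nm.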

For test [3], the target named is BRAF-GTP-KRAS-G12C complex (Homo sapiens, UniProt P01116+P62937, G12C). Briefly: KRAS-BRAF complex disruption through competition with CYPA-compound by TR-FRET. Particulars: read-out: BRAF-GTP-KRAS-G12C Disruption; biochemical BRAF-KRAS G12C-GTP disruption assay EC50, with CYPA. The essentials: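 Compound-driven loss of KRAS–BRAF RBD TR-FRET signal, Eu-anti-His/APC-anti-GST pair (10/50 nM, 1.5 h), following a 3 h room-temperature preincubation of 50 nM His6-KRAS G12C-GTP and 500 nM CypA in 25 mM Hepes pH 7.3 buffer. EC50 by 4-parameter fit. Variants used wild-type KRAS in place of G12C or no CypA.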
On the technique in general: In TR-FRET formats the signal depends on donor and acceptor labels being close together.

Each structure is given as a SMILES string. Where only a bound is given, the exact number is not on record here.

On to `CC(C)[C@@H](C(=O)N[C@H]1Cc2cc(O)cc(c2)-c2ccc3c(C#CC(C)(C)O)nn(c3c2)CC(C)(C)COC(=O)[C@@H]2CCCN(N2)C1=O)N(C)C(=O)C1CN(C(=O)CCl)C1`, for which the Kd in test [1] is 5 to 15 µM. Further, the IC50 in test [2] was over 10 µM. Moreover, in test [3], the EC50 was under 500 nM.
`CC(C)[C@@H](C(=O)N[C@H]1Cc2cc(O)cc(c2)-c2ccc3c(C4(C#N)CCCC4)cn(c3c2)C[C@H](C)COC(=O)[C@@H]2CCCN(N2)C1=O)N(C)C(=O)C1CN(C(=O)CCl)C1`: the Kd in test [1] was 5 to 15 µM. In addition, in test [2], the IC50 was under 1 µM. In test [3], the EC50 is under 500 nM.
With `COCc1cccc(-c2cn3c4cc(ccc24)-c2cc(O)cc(c2)C[C@H](NC(=O)[C@H](C(C)C)N(C)C(=O)C2CN(C(=O)CCl)C2)C(=O)N2CCC[C@H](N2)C(=O)OCC(C)(C)C3)c1`, the Kd in test [1] fell in the range of 5 to 15 µM. In addition, the IC50 in test [2] lay in the range of 1 to 10 µM. In test [3], the EC50 was under 500 nM.
The matching figures for `COCc1ccccc1-c1cn2c3cc(ccc13)-c1cc(O)cc(c1)C[C@H](NC(=O)[C@H](C(C)C)N(C)C(=O)C1CN(C(=O)[C@@H](C)Cl)C1)C(=O)N1CCC[C@H](N1)C(=O)OCC(C)(C)C2`: over 15 µM, 1 to 10 µM and 500 to 5000 nM.
Regarding `CC1COC(=O)[C@@H]2CCCN(N2)C(=O)[C@@H](NC(=O)[C@H](C(C)C)N(C)C(=O)C2CN(C(=O)[C@@H](C)Cl)C2)Cc2cc(O)cc(c2)-c2ccc3c(c2)c(cn3CC2CCOCC2)C1` (stereo partly drawn), the Kd in test [1] is under 5 µM. The IC50 in test [2] is over 10 µM. Also, in test [3], the EC50 was over 5000 nM.
In the same order, the values of `CC(C)[C@@H](C(=O)N[C@H]1Cc2cc(O)cc(c2)-c2ccc3c(C(C)(C)C#N)cn(c3c2)CC(C)(C)COC(=O)[C@@H]2CCCN(N2)C1=O)N(C)C(=O)[C@@H]1CCN(C(=O)[C@@H](C)Cl)C1` are under 5 µM, over 10 µM and 500 to 5000 nM.
In the same order, the values of `CC(C)[C@@H](C(=O)N[C@H]1Cc2cc(O)cc(c2)-c2ccc3c(c2)N(CC3C(C)(C)C#N)C[C@H](C)COC(=O)[C@@H]2CCCN(N2)C1=O)N(C)C(=O)C1CN(C(=O)CCl)C1` (single isomer, unassigned) [249] are under 5 µM, over 10 µM and 500 to 5000 nM.
In the same order, the values of `CC(C)[C@@H](C(=O)N[C@H]1Cc2cc(O)cc(c2)-c2ccc3c(-c4ccc5ncsc5c4)cn(c3c2)CC(C)(C)COC(=O)[C@@H]2CCCN(N2)C1=O)N(C)C(=O)C1CN(C(=O)CCl)C1` are under 5 µM, over 10 µM and under 500 nM.
Turning to `C=CC(=O)N1CC[C@H](C(=O)N(C)[C@H](C(=O)N[C@H]2Cc3cc(O)cc(c3)-c3ccc4c(c3)N(CC(C)(C)COC(=O)[C@@H]3CCCN(N3)C2=O)CC4(COC)COC)C(C)C)C1`, the Kd in test [1] lay in the range of 5 to 15 µM. Besides, the IC50 in test [2] lay within 1 to 10 µM. The EC50 in test [3] was 500 to 5000 nM.
The matching figures for `C=CC(=O)N1CC2(C(=O)N(C)[C@H](C(=O)N[C@H]3Cc4cc(O)cc(c4)-c4ccc5c(C(C)(C)C#N)cn(c5c4)CC(C)(C)COC(=O)[C@@H]4CCCN(N4)C3=O)C(C)C)CC1C2`: 5 to 15 µM, over 10 µM and 500 to 5000 nM.
`C=CC(=O)N1CC[C@H](C(=O)N(C)[C@H](C(=O)N[C@H]2Cc3cc(O)cc(c3)-c3ccc4c(c3)c(cn4C(C)(C#N)CCOC)CC(C)(C)COC(=O)[C@@H]3CCCN(N3)C2=O)C(C)C)C1` (stereo partly drawn): in test [1], the Kd was over 15 µM. In addition, the IC50 in test [2] was under 1 µM. The EC50 in test [3] fell in the range of 500 to 5000 nM.
With `CC#CC(=O)N1CCC(C(=O)N(C)[C@H](C(=O)N[C@H]2Cc3cc(O)cc(c3)-c3ccc4nc(C)n(c4c3)CC(C)(C)COC(=O)[C@@H]3CCCN(N3)C2=O)C(C)C)C1` (stereo partly drawn), the Kd in test [1] lay within 5 to 15 µM. In addition, the IC50 in test [2] is over 10 µM. Also, in test [3], the EC50 is over 5000 nM.
The matching figures for `CC#CC(=O)N1CCC2(CCN([C@H](C(=O)N[C@H]3Cc4cc(O)cc(c4)-c4ccc5c(C(C)(C)C#N)cn(c5c4)CC(C)(C)COC(=O)[C@@H]4CCCN(N4)C3=O)C(C)C)C2=O)C1` (stereo partly drawn): under 5 µM, over 10 µM and 500 to 5000 nM.
For the molecule `CC(C)[C@@H](C(=O)N[C@H]1Cc2cc(O)cc(c2)-c2ccc3c(-c4c(Cl)cccc4C#N)cn(c3c2)CC(C)(C)COC(=O)[C@@H]2CCCN(N2)C1=O)N(C)C(=O)C1CN(C(=O)CCl)C1`, the Kd in test [1] lay within 5 to 15 µM. Also, in test [2], the IC50 was under 1 µM. The EC50 in test [3] is under 500 nM.
For the molecule `CC(C)[C@@H](C(=O)N[C@H]1Cc2cc(O)cc(c2)-c2ccc3c(c2)N(C[C@H](C)COC(=O)[C@@H]2CCCN(N2)C1=O)C(=O)C31CCOCC1)N(C)C(=O)C1CN(C(=O)CCl)C1`, in test [1], the Kd was over 15 µM. For the same molecule, the IC50 in test [2] fell in the range of 1 to 10 µM. For the same molecule, in test [3], the EC50 is under 500 nM.
In the case of `CC(C)[C@@H](C(=O)N[C@H]1Cc2cc(O)cc(c2)-c2ccc3cc4n(c3c2)CC(COC4)COC(=O)[C@@H]2CCCN(N2)C1=O)N(C)C(=O)C1CN(C(=O)CCl)C1`, the Kd in test [1] is under 5 µM. Moreover, the IC50 in test [2] is over 10 µM. In addition, in test [3], the EC50 was 500 to 5000 nM.
Consider `CC(C)[C@@H](C(=O)N[C@H]1Cc2cc(O)cc(c2)-c2ccc3c(C(C)(C)C#N)cn(c3c2)CC(F)COC(=O)[C@@H]2CCCN(N2)C1=O)N(C)C(=O)C1CN(C(=O)CCl)C1` (single isomer, unassigned), for which, in test [1], the Kd lay within 5 to 15 µM. In addition, in test [2], the IC50 is over 10 µM. In addition, in test [3], the EC50 lay within 500 to 5000 nM.
The matching figures for `CC(C)[C@@H](C(=O)N[C@H]1Cc2cc(O)cc(c2)-c2ccc3c(C(C)(C)C#N)cn(c3c2)CC(C)(C)COC(=O)[C@@H]2CCCN(N2)C1=O)N(C)C(=O)[C@H]1CCN(C(=O)[C@@H](C)Cl)C1`: under 5 µM, 1 to 10 µM and 500 to 5000 nM.
The matching figures for `CC#CC(=O)N1CCC(F)(C(=O)N(C)[C@H](C(=O)N[C@H]2Cc3cc(O)cc(c3)-c3ccc4c(C(C)(C)C#N)cn(c4c3)CC(C)(C)COC(=O)[C@@H]3CCCN(N3)C2=O)C(C)C)CC1`: over 15 µM, 1 to 10 µM and 500 to 5000 nM.
In the same order, the values of `CC(C)[C@@H](C(=O)N[C@H]1Cc2cc(O)cc(c2)-c2ccc3c(-c4cccc(F)c4C#N)cn(c3c2)CC(C)(C)COC(=O)[C@@H]2CCCN(N2)C1=O)N(C)C(=O)C1CN(C(=O)CCl)C1` are 5 to 15 µM, under 1 µM and under 500 nM.
As to `Cc1nc2ccc3cc2n1CC(C)(C)COC(=O)[C@@H]1CCCN(N1)C(=O)[C@@H](NC(=O)[C@H](C(C)C)N(C)C(=O)C1CN(C(=O)CCl)C1)Cc1cc(O)cc-3c1`, the Kd in test [1] lay within 5 to 15 µM. The IC50 in test [2] was over 10 µM. The EC50 in test [3] was under 500 nM.
As to `CC#CC(=O)N1CC[C@H](C(=O)N(C)[C@H](C(=O)N[C@H]2Cc3cc(O)cc(c3)-c3ccc4c(C(C)(C)C#N)cn(c4c3)CC(C)(C)COC(=O)[C@@H]3CCCN(N3)C2=O)C(C)C)C1`, in test [1], the Kd was 5 to 15 µM. Besides, the IC50 in test [2] was over 10 µM. In addition, in test [3], the EC50 lay within 500 to 5000 nM.
For the molecule `CC(C)[C@@H](C(=O)N[C@H]1Cc2cc(O)cc(c2)-c2ccc3c(c2)n(c(=O)n3C2CCOCC2)C[C@H](C)COC(=O)[C@@H]2CCCN(N2)C1=O)N(C)C(=O)C1CN(C(=O)CCl)C1`, the Kd in test [1] is under 5 µM. Moreover, the IC50 in test [2] fell in the range of 1 to 10 µM. Also, in test [3], the EC50 was under 500 nM.
